Among the data in ChEMBL document CHEMBL3091310, “Pseudo-cyclization through intramolecular hydrogen bond enables discovery of pyridine substituted pyrimidines as new Mer kinase inhibitors” (J Med Chem, 2013) are IC50 values, retold here.

The target in the experiment is T1, Tyrosine-protein kinase receptor TYRO3 (Homo sapiens, UniProt Q06418).
T1 sequence (Q06418 whole entry): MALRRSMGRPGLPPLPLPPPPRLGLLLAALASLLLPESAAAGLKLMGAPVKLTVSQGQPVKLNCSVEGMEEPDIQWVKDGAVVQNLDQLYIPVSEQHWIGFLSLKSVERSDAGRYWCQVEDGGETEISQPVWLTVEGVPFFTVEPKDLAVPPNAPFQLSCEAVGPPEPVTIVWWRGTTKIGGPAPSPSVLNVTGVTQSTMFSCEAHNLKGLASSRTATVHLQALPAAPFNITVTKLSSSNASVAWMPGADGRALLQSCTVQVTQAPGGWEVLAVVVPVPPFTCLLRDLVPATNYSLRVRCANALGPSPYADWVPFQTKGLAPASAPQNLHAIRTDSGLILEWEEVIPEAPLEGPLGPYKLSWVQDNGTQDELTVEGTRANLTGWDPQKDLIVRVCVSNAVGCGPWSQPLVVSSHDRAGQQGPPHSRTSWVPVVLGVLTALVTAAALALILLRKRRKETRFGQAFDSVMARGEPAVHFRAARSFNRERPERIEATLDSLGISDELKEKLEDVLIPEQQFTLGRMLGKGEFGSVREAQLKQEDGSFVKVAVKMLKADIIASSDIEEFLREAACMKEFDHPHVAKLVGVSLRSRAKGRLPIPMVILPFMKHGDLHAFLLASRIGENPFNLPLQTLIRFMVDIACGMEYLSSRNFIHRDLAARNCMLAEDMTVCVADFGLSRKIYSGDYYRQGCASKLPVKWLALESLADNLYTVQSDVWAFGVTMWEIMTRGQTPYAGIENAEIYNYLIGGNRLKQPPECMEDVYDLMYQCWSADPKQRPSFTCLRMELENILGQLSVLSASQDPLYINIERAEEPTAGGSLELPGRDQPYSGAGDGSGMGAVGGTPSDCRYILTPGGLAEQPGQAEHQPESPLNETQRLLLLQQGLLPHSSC

The IC50 is the midpoint of a concentration-inhibition curve. As for `CCCCNc1ncc(-c2cccc(CN3CCOCC3)n2)c(N[C@H]2CC[C@H](O)CC2)n1`, the IC50 was found to be 0.39 µM.
